The results in this text go back to ChEMBL document CHEMBL3997851, “Design and Synthesis of Mercaptoacetamides as Potent, Selective, and Brain Permeable Histone Deacetylase 6 Inhibitors” (ACS Med Chem Lett, 2017).

For one experiment, the species on record is Homo sapiens. Nature of the experiment: Selectivity ratio of IC50 for human HDAC1 to IC50 for human HDAC6. An outline of the steps:
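HDAC1 and HDAC6 IC50s are each the mean of two experiments.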

The target in experiment [1] is T1, Protein deacetylase HDAC6 (Homo sapiens) (UniProt Q9UBN7).
T1 sequence (whole entry): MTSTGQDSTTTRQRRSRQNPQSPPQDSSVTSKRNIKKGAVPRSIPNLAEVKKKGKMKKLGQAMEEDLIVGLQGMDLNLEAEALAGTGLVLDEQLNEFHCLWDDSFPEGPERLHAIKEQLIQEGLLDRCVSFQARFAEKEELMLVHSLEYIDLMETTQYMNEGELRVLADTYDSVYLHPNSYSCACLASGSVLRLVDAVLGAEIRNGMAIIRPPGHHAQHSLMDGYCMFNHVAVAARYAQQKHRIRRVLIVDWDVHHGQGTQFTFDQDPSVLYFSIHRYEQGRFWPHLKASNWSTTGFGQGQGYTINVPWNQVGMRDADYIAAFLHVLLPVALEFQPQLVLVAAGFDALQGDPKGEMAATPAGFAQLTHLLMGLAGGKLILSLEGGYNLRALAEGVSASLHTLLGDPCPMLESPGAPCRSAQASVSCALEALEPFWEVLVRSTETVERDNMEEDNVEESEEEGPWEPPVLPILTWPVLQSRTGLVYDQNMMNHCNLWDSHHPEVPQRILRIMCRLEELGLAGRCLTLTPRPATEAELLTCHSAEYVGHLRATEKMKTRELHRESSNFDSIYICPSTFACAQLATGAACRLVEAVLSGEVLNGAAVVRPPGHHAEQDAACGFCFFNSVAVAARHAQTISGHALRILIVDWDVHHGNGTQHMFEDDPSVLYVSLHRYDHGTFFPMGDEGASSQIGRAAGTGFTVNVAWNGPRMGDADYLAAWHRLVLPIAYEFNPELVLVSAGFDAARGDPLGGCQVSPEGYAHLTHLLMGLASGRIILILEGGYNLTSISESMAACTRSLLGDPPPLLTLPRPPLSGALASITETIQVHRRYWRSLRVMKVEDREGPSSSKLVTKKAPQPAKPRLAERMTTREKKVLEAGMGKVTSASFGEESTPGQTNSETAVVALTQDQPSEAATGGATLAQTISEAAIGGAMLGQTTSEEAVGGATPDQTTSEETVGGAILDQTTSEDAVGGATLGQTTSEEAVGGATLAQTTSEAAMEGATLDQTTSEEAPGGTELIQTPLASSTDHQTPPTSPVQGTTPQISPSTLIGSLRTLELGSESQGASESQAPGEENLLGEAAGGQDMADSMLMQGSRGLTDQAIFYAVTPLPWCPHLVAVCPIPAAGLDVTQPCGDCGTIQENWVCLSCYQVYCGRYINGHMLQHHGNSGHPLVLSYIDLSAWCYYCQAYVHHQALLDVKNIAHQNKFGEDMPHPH
Nature of the experiment: Inhibition of HDAC6 in HEK293 cells assessed as induction of tubulin acetylation after 24 hrs by Western blot method. The experiment is classed as cell-based. An outline of the steps:
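HEK293 cells are treated with compound, and acetylated tubulin and histone H3 are detected by Western blot with GAPDH as loading control. Each blot carries a tubastatin 10 µM positive control and a DMSO or medium negative control.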
(In general: Immunoblotting shows a protein as a band on a membrane.)

For the molecule `O=C(CS)NCCCCNc1c(Cl)cc(Cl)c2cccnc12`, the Ratio IC50 in the experiment filed under Homo sapiens stood at 2470. The inhibition result in experiment [1] is “Dose-dependent effect”.
